Values of other authors in patent publication US20150141617A1, “PRODUCTION AND PURIFICATION OF ACTIVE EUKARYOTIC FORMYLGLYCINEGENERATING ENZYME (FGE) VARIANTS” (Universität Bielefeld, priority 2013, published 2015).

Chains of the proteins cited; added tags and fusions are not shown. Residues count along the entry.
UniProt P09958, 108-794 limits assumed: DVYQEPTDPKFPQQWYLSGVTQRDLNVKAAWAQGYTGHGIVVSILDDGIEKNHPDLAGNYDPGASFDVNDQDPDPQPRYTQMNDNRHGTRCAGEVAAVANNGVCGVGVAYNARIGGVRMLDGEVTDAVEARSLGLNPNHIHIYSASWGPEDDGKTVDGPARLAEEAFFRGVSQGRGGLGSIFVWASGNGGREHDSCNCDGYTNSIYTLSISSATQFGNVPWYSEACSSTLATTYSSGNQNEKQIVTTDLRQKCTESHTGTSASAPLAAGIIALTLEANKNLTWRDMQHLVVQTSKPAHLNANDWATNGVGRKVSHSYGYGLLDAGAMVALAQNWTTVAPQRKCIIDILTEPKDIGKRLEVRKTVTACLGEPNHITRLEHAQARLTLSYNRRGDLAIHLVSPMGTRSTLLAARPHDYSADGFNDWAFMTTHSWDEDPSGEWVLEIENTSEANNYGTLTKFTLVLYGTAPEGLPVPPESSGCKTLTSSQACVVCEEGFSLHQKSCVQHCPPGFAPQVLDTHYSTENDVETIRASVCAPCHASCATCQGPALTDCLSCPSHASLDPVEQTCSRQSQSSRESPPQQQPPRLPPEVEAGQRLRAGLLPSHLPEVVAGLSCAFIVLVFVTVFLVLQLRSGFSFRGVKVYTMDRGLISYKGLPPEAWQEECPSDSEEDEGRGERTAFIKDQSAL

Target: furin (Homo sapiens, UniProt P09958)
Conditions: read-out: Ki against furin; cited from earlier work

N=C(N)NCCC[C@H](NC(=O)[C@H](CCCNC(=N)N)NC(=O)[C@H](CCCNC(=N)N)NC(=O)[C@H](CCCNC(=N)N)NC(=O)[C@H](CCCNC(=N)N)NC(=O)[C@H](CCCNC(=N)N)NC(=O)[C@H](CCCNC(=N)N)NC(=O)[C@H](CCCNC(=N)N)NC(=O)[C@@H](N)CCCNC(=N)N)C(=O)O
Ki: 40 nM
